Reference: paper PMC5116066

Experiments:
[1] = molecular target: bZiPro: unlinked ZIKV NS2B-NS3 protease of two separate polypeptides, NS2B 45-96 and NS3 1-177 (Zika virus)
[2] = molecular target: eZiPro: ZIKV NS2B-NS3 protease, self-cleaved at the NS2B/NS3 junction (NS2B 45-96 joined to K126-R130, and NS3 1-177) (Zika virus)
[3] = molecular target: gZiPro: single-chain ZIKV NS2B-NS3 protease with a G4SG4 linker between NS2B 45-96 and NS3 1-177 (Zika virus)

BPTI (from UniProt P00974 36-93) (natural protein)
IC50 of BPTI for inhibition of protease activity (cleavage of Bz-nKRR-AMC, 5 nM enzyme, 150 μM substrate, 37 °C) [1]: 12 nM | IC50 of BPTI for inhibition of protease activity (cleavage of Bz-nKRR-AMC, 5 nM enzyme, 150 μM substrate, 37 °C) [2]: 350 nM | IC50 of BPTI for inhibition of protease activity (cleavage of Bz-nKRR-AMC, 5 nM enzyme, 150 μM substrate, 37 °C) [3]: 76 nM
